Assay results published in patent publication US20240190880A1 (THE REGENTS OF THE UNIVERSITY OF MICHIGAN, priority 2021, published 2024).

Sequences of proteins named here, by UniProt entry; tags and fusion partners are left off.
UniProt P03372, whole entry: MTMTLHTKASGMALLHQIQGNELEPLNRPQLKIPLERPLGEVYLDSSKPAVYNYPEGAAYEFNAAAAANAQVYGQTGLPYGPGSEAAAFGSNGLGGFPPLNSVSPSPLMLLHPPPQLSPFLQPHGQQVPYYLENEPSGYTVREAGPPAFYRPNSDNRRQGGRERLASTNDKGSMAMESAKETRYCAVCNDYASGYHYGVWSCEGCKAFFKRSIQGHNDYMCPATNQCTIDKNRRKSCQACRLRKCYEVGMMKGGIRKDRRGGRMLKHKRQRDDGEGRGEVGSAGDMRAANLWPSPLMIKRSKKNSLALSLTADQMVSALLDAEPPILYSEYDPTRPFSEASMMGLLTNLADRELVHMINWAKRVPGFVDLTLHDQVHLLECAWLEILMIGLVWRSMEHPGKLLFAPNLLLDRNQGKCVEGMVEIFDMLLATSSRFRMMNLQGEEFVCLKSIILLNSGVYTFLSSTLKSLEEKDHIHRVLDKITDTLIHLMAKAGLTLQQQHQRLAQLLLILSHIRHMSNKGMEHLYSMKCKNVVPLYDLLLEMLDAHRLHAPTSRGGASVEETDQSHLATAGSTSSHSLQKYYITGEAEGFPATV

Biological target: ER (Homo sapiens, UniProt P03372)
Assay: ER degradation activity, in-cell western blot analysis in T47D cells
Conditions: read-out: Potency (DC50), 16 hours, Table A does not say which cell line (T47D or MCF7)

Question: Which DC50 does the source give for `O=C1CCC(N2C(=O)c3cc4c(cc3C2=O)CN(CC2(F)CCN(C(=O)C3CCN(c5ccc([C@@H]6c7ccc(O)cc7CC[C@@H]6c6ccccc6)cc5)CC3)CC2)C4)C(=O)N1` (stereo partly shown) here?
Answer: > 100 nM
